Test results: US8153609B2 (priority 2004, dated 2012)
Read-outs that look alike come from different tables or passages of the source.

Tests used:
[1] = target: T1, PKA type Iα (RIα/Cα) holoenzyme (Homo sapiens, UniProt P10644); assay: Cook assay, activation (agonist) assay, RIα holoenzyme; assay type: biochemical; conditions: Table 1 (Example 83), activation screen 10 μM analog
[2] = target: T1, PKA type Iα (RIα/Cα) holoenzyme; assay: Cook coupled spectrophotometric kinase assay, suppression (antagonist) assay, PKA type Iα; assay type: biochemical; conditions: for Antagonist: Table 1 (Example 83), PKA type Iα; for relative potency*: antagonists relative to Rp-8Br-cAMPS
[3] = test system: Human peripheral T lymphocytes; assay: T lymphocyte proliferation assay (anti-CD3 activated, [3H]thymidine); conditions: Ex vivo testing in T lymphocytes; for Antagonist properties: in presence of agonist Sp-8-Br-cAMPS; for relative potency*: reference compounds = 1.00
PKA type Iα (holo RIα) = PKA type Iα (holo RIα) (Homo sapiens, UniProt P10644); assay: Biacore surface competition ligand binding assay, holo RIα
[4] = target: T2, PKA type IIα (RIIα holoenzyme) (Homo sapiens, UniProt P13861); assay: Cook assay, activation of Holo RIIα; conditions: Table 2, Holo RIIa
holo RIIα = holo RIIα (Homo sapiens, UniProt P13861); assay: Biacore surface competition ligand binding assay, holo RIIα; conditions: read-out: holo RIIa Biacore
[5] = target: T2, PKA type IIα (RIIα holoenzyme); assay: Cook kinase assay, suppression assay, PKA type IIα; assay type: biochemical
[6] = read-out: half-maximal antagonistic effect (IC50 or EC50), reversal of Sp-8-Br-cAMP-mediated PKA activation, 1 μM Sp-8-Br-cAMPS, 10 nM RIα holoenzyme
[7] = excess of antagonist 10 μM, 10 nM holo RIα

| Structure (SMILES) | Agonist [1] | Antagonist [2] | relative potency* [2] | IC50 [2, 6] [nM] | Agonist properties [3] | Antagonist properties [3] | relative potency* [3] | further results |
| --- | --- | --- | --- | --- | --- | --- | --- | --- |
| C=C(OCC)c1nc2c(N)ncnc2n1[C@@H]1O[C@@H]2CO[P@@](=O)(S)O[C@H]2[C@H]1O | no | yes | 0.56 | 2400 | No | Yes | 0.26 | – |
| Cc1nc2c(N)ncnc2n1[C@@H]1O[C@@H]2CO[P@@](=O)(S)O[C@H]2[C@H]1O | no | yes | 0.16 | – | No | Yes | 0.69 | – |
| Nc1ncnc2c1nc(Br)n2[C@@H]1O[C@@H]2CO[P@@](=O)(S)O[C@H]2[C@H]1O | no | yes | 1.00 | 1200 | No | Yes | 1.00 | EC50 (PKA type Iα (holo RIα); Rp-8-AHA cAMPS surface, 10 nM holo RIα): 2600 nM; EC50 (PKA type Iα (holo RIα); Rp-8-AHA cAMPS surface, 10 nM holo RIα, listed as Rp-8-Br cAMPS): 2900 nM; binding to 8-AHA cAMP surface (PKA type Iα (holo RIα); any concentration of antagonist, 10 nM holo RIα): not affected; binding of holo complex at the Rp-8-AHA cAMPS surface (PKA type Iα (holo RIα); [7]): completely blocked; effect in binding to the 8-AHA cAMP surface (PKA type Iα (holo RIα); [7]): no effect; EC50 (PKA type Iα (holo RIα); read-out: holo RIa Biacore, Table 3, 2 nM holo): 2400 nM; Agonist [4]: no; Potency ([2]; PKA type Iα enzymatic activity, relative to the known Rp-8-Br-cAMPS): 1.00; IC50 ([2]; read-out: half-maximal antagonistic effect (IC50 or EC50), average in several experiments, average, n=3): 1350 nM; IC50 ([2]; read-out: holo RIa Cook, Table 3): 1300 nM; EC50 (holo RIIα; 8-AHA surface): 21200 nM; EC50 (holo RIIα; Rp-8-AHA surface): 10800 nM; relative inhibition* ([5]; % antagonist effect with 1 μM Sp-8Br-cAMPS at 250 μM of Rp-cAMPS analog): 79%; EC50RII/EC50RI*** ([5]; Selectivity for PKA type I (EC50 PKA type II/EC50 PKA type I)): 12; Antagonist ([5]; Table 2, Holo RIIa): yes; relative potency** ([5]; antagonists relative to Rp-8-Br-cAMPS, Holo RIIa): 1.00; IC50 ([5]; read-out: half-maximal antagonistic effect (IC50 or EC50), reversal of Sp-8-Br-cAMP-mediated PKA type II activation, 1 μM Sp-8-Br cAMPS, 10 nM RIIα holoenzyme): 14900 nM |
